Columns and labels:
[1] = test system: GS 11331 gastrointestinal stromal tumor PDX model; assay: In vivo efficacy, single agents (Example 3); conditions: for T/C / TGI: day 56; for Tumor Size on Day 56: mean; for anti-tumor efficacy: vs vehicle
Procedure: This study investigated the therapeutic efficacy of M4205 and compounds of Formula (I) (e.g., Compound 198) as single test agents in GS 11331 gastrointestinal stromal tumor PDX model in female BALB/c nude mice.
Methods: Tumor inoculation was conducted as follows. Fresh tumor tissues from stock mice were harvested and used for inoculation into mice. Each mouse was inoculated subcutaneously in the right front flank with primary human tumor xenograft model tumor fragments (approximately 2-3 mm in diameter) for tumor development.
The randomization started when the mean tumor size reached approximately 147-148 mm^3. 42 mice were enrolled in the study. All animals were randomly allocated to 7 study groups based on the tumor volume, 6 mice in each group. Randomization was performed based on “Matched distribution” method/“Stratified” method (StudyDirector™ software). The date of randomization was denoted as day 0.
(§1) The treatment was initiated on the same day of randomization (day 0) per study design.
(§2) Observations and Data Collection: After tumor cells inoculation, the animals were checked daily for morbidity and mortality. During routine monitoring, the animals were checked for any effects of tumor growth and treatments on behavior such as mobility, food and water consumption, body weight gain/loss (body weights were measured twice per week after randomization), eye/hair matting and any other abnormalities. Mortality and observed clinical signs were recorded for individual animals in detail.
(§3) Tumor volumes were measured twice per week after randomization in two dimensions using a caliper, and the volume was expressed in mm^3 using the formula: “V=(L×W×W)/2, where V was tumor volume, L was tumor length (the longest tumor dimension) and W was tumor width (the longest tumor dimension perpendicular to L). Dosing as well as tumor and body weight measurements were conducted in a Laminar Flow Cabinet. The body weights and tumor volumes were measured by scale and caliper, the data was recorded by using StudyDirector™ software.
Study Termination: The treatments were performed for 57 days. The study was terminated on day 57. Tumors were not collected for euthanized mice before termination of the study. No sampling for mice found dead.
(§4) Therefore, an ANOVA test was conducted to determine whether there exists any pair of groups with different group means and run the post hoc Tukey HSD for all pairwise comparisons or Dunnett's t test for each treatment against one control.
(§5) Then a Kruskal-Wallis test was conducted to determine if there exists any pair of groups with different group medians and run the post hoc Conover's non-parametric all-pairs comparison test for all pairwise comparisons, or Conover's non-parametric many-to-one comparison test for each treatment against one control.
(§6) Both tests use single-step p-value adjustment. In addition, pairwise comparisons were performed without multiple comparison correction and report nominal/uncorrected p-values directly from Welch's t-test or Mann-Whitney U test. The criterion of choosing Welch's t-test or Mann-Whitney U test is the same as the two-group comparison method mentioned above. All statistical analyses had been done in R language and environment for statistical computing and graphics (version 3.6.0). All tests were two-sided unless otherwise specified, and p-values of <0.05 are regarded as statistically significant. For survival analysis, Kaplan-Meier model with Log-rank method was applied.

cKIT Exon 13 = assay: Potency against KIT exon 13
[2] = Body weight / tolerability (Example 5); conditions: treatment groups
Procedure: as §2
(§7) Criteria for Dosing Holiday and Supplemental Gel Administration: No dosing holiday. Treatment resumed when the BWL recovered. Sacrificed the individual mouse when BWL>15% for 72 hours. Supplemental gels were administered to the individual mouse with BWL>15%. BWL was calculated based in the BW of mouse on the day of randomization.
(§8) Endpoints: The body weight of all animals was monitored throughout the study and animals were euthanized if they lost over 20% of their body weight relative to the weight on the first day of treatment. The individual mouse was euthanized if its tumor volume exceeded 3000 mm^3. […] The mouse was euthanized rapidly if: tumor ulcerates, and the ulceration diameter was greater than 5 mm, or pus or necrosis observed; or tumor burden, including metastasis, compromises animal's normal physiologic performances, e.g., orientation, access to food or water. The mouse was euthanized rapidly if the animal was: emaciated—skeletal structure extremely prominent, little or no flesh cover, vertebrae distinctly segmented; persistent hypothermia; blood stained or mucopurulent discharge from any orifice; labored breathing, particularly accompanied by nasal discharge or cyanosis; hind limb paralysis or weakness (cannot reach food and water); severe anemia, mainly indicated by pale feet or ears; severe infection; incontinence or diarrhea over 48 hours; or severe dehydration.

[3] = test system: multiple mutants of exon 17 (cKIT); assay: Potency against multiple mutants of KIT exon 17
[4] = Body weight / tolerability (Example 3); conditions: treatment groups
Procedure: as §2, §7, §8

cKIT Exon 11 = assay: Potency against KIT exon 11
cKIT Exon 9 = assay: Potency against KIT exon 9
[5] = test system: GS 11331 gastrointestinal stromal tumor PDX model; assay: In vivo efficacy, alone and in combination (Example 5); conditions: for TGI: Table 11; for Tumor Size on Day 56: mean ± SEM, Day 56 per head
From the text: This study investigated the therapeutic efficacy of M4205 and compounds of Formula (I) (e.g., Compound 198) as single test agents and in combination in GS 11331 gastrointestinal stromal tumor PDX model in female BALB/c nude mice.
(§9) Methods: Fresh tumor tissues from stock mice were harvested and used for inoculation into mice. Each mouse was inoculated subcutaneously in the right front flank with primary human tumor xenograft model tumor fragments (approximately 2-3 mm in diameter) for tumor development.
The randomization started when the mean tumor size reached approximately 176-178 mm^3. 54 mice were enrolled in the study. All animals were randomly allocated to 9 study groups based on the tumor volume, 6 mice in each group. Randomization was performed based on “Matched distribution” method/“Stratified” method (StudyDirector™ software). The date of randomization was denoted as day 0.
as §1, §2, §3
Study Termination: The treatments were performed for 28 days. The study was terminated on day 28. Tumors were not collected for euthanized mice before termination of the study. No sampling for mice found dead.
as §4, §5, §6

[6] = test system: primary and secondary cKIT mutations; assay: Inhibition of cKIT mutations
[7] = First-in-human Phase 1/1b study of M4205 in subjects with GIST
From the text: This study is designed to evaluate the safety, tolerability, PK, and preliminary antitumor activity of M4205 in adult participants with advanced (metastatic and/or surgically unresectable) GIST.
This is a Phase 1/1b, first-in-human (FIH) study of M4205, an orally administered small molecule tyrosine kinase inhibitor. Eligible participants have metastatic and/or surgically unresectable GIST, after failure of at least imatinib due to progression of GIST. The study consists of 2 parts. Phase 1 comprises dose escalation to assess clinical and pharmacologic profile, safety/tolerability, and support choice of the recommended phase 2 dose and schedule (RP2DS). Phase 1b expansion will enroll separate cohorts of participants defined by numbers of lines of prior GIST therapy at the selected RP2DS to assess the preliminary antitumor effect of M4205 and further characterize the safety profile of M4205 at the RP2DS.
Cohort 1 consisted of subjects who have progressed on imatinib only (n=29). Cohort 2 consisted of subjects who have progressed on both imatinib and sunitinib or progressed on imatinib, sunitinib, and an additional agent (e.g., regorafenib or ripretinib). Cohort 3 consisted of subjects who have progressed on imatinib, sunitinib, regorafenib, and ripretinib. Cohort 3 400 mg QD dose confirmed to be safe and tolerable.
Dose-related increase in exposure was observed from 120 mg to 600 mg QD.

[8] = test system: GS11331 gastrointestinal stromal tumor PDX model; assay: In vivo combination efficacy (Example 4)
From the text: This study investigated the combination efficacy of M4205 and compounds of Formula (I) (e.g., Compound 198) in GS11331 gastrointestinal stromal tumor PDX model in female BALB/c nude mice.
as §9
The randomization started when the mean tumor size reached approximately 184 mm^3. 56 mice were enrolled in the study. All animals were randomly allocated to 7 study groups based on the tumor volume, 8 mice in each group. Randomization was performed based on “Matched distribution” method/“Stratified” method (StudyDirector™ Software). The date of randomization was denoted as day 0.
The treatment was initiated on the same day of randomization (day 1) per study design.
as §2, §3
Study Termination: The treatments were performed for 28 days. The study was terminated on day 29. Tumors were not collected for euthanized mice before termination of the study. No sampling for mice found dead.
as §4, §5
Both tests use single-step p-value adjustment. […]

[9] = Group 5: M4205 1 mg/kg p.o. QD×30 days
[10] = Group 6: M4205 2.5 mg/kg p.o. QD×30 days
[11] = Group 7: M4205 10 mg/kg p.o. QD×30 days
[12] = Group 2: M4205 1 mg/kg p.o. QD×28 days
[13] = Group 3: M4205 2.5 mg/kg p.o. QD×28 days
[14] = Group 2: Compound 198 3 mg/kg p.o. QD×30 days
[15] = Group 3: Compound 198 10 mg/kg p.o. QD×30 days
[16] = Group 4: Compound 198 30 mg/kg p.o. QD×30 days
[17] = Group 4: Compound 198 3 mg/kg p.o. QD×28 days
[18] = Group 5: Compound 198 10 mg/kg p.o. QD×28 days
[19] = Group 9: sunitinib 20 mg/kg p.o. QD×28 days

Structure (SMILES): Cn1cc(-c2ccc(CNc3cc(-c4cnc5cc(OCCCN6CCCC6)ccn45)ncn3)cc2)cn1
- T/C [1, 9]: 0.92
- TGI [1, 9]: 7.65%
- Tumor Size on Day 56 [1, 9]: 1611.88 mm^3
- T/C [1, 10]: 0.14
- TGI [1, 10]: 86.16%
- Tumor Size on Day 56 [1, 10]: 241.61 mm^3
- T/C [1, 11]: 0.01
- TGI [1, 11]: 98.18%
- Tumor Size on Day 56 [1, 11]: 20.84 mm^3
- anti-tumor efficacy ([1]; M4205 mid-dose and high-dose single treatment): statistically significant anti-tumor efficacy
- potency against Exon 13 (cKIT Exon 13): somewhat less potent, though still active
- body weight loss [2]: no significant body weight loss
- tolerability [2]: well-tolerated
- potency against multiple mutants of exon 17 [3]: potent
- body weight loss [4]: no significant body weight loss
- tolerability [4]: well-tolerated
- potency against Exon 11 (cKIT Exon 11): potent
- potency against Exon 9 (cKIT Exon 9): potent
- T/C [5, 12]: 0.64
- TGI [5, 12]: 35.95%
- TGI value on day 25 [5, 12]: 35.95%
- Tumor Size on Day 56 [5, 12]: 331.27 +/− 31.17(5) mm^3
- T/C [5, 13]: 0.25
- TGI [5, 13]: 74.54%
- TGI value on day 25 [5, 13]: 74.54%
- Tumor Size on Day 56 [5, 13]: 131.67 +/− 34.02(6) mm^3
- anti-tumor efficacy ([5]; M4205 mid-dose single treatment, vs vehicle): significant anti-tumor efficacy
- inhibition of primary and secondary cKIT mutations [6]: inhibits primary and secondary cKIT mutations
- exposure ([7]; 120 mg to 600 mg QD): Dose-related increase in exposure
- safety and tolerability ([7]; Cohort 3, 400 mg QD dose): safe and tolerable
- half-life (t1/2) ([7]; oral): about 150 hours
- accumulation at steady state ([7]; oral, steady state): 5-7 fold

Structure (SMILES): CC(C)(O)Cn1cc(-c2cnc(Nc3cc(N)nc(C(F)F)n3)cc2OC(F)(F)F)cn1
- anti-tumor efficacy ([1]; Compound 198 mid-dose and high-dose single treatment): statistically significant anti-tumor efficacy
- T/C [1, 14]: 0.63
- TGI [1, 14]: 36.77%
- Tumor Size on Day 56 [1, 14]: 1103.58 mm^3
- T/C [1, 15]: 0.05
- TGI [1, 15]: 95.04%
- Tumor Size on Day 56 [1, 15]: 86.65 mm^3
- T/C [1, 16]: 0.01
- TGI [1, 16]: 98.58%
- Tumor Size on Day 56 [1, 16]: 24.72 mm^3
- body weight loss [2]: no significant body weight loss
- tolerability [2]: well-tolerated
- body weight loss [4]: no significant body weight loss
- tolerability [4]: well-tolerated
- anti-tumor efficacy ([5]; Compound 198 mid-dose single treatment, vs vehicle): significant anti-tumor efficacy
- T/C [5, 17]: 0.83
- TGI [5, 17]: 17.21%
- TGI value on day 25 [5, 17]: 17.21%
- T/C [5, 18]: 0.15
- TGI [5, 18]: 84.99%
- TGI value on day 25 [5, 18]: 84.99%

Structure (SMILES): CCN(CC)CCNC(=O)c1c(C)[nH]c(/C=C2\C(=O)Nc3ccc(F)cc32)c1C
- T/C [5, 19]: 0.23
- TGI [5, 19]: 76.69%
- TGI value on day 25 [5, 19]: 76.69%
- anti-tumor efficacy ([5]; positive control, sunitinib 20 mg/kg): expected anti-tumor efficacy
- T/C ([8]; Group 2: sunitinib 10 mg/kg p.o. QD×28 days): 0.48
- TGI ([8]; Group 2: sunitinib 10 mg/kg p.o. QD×28 days, Table 8): 51.65%
- TGI value on day 24 ([8]; Group 2: sunitinib 10 mg/kg p.o. QD×28 days, day 24): 51.65%
- anti-tumor efficacy ([8]; positive control, sunitinib 10 mg/kg): expected anti-tumor efficacy
